Test system: P-gp
Assay: Compartmental models of apical efflux fit to permeability data
Settings: 5C model, asa = 1, lipid content = 10%

Nc1cc(N2CCCCC2)nc(N)[n+]1[O-] [Minoxidil]
CLi (diffusion clearance into an explicit membrane compartment): 0.3 µL/min
